What was measured:
MCF7 = assay: Antiproliferative activity against human MCF7 cells after 72 hrs by MTT assay; type: functional, cell-based
Summary of the method: (§1)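 Log-phase tumour cells seeded and held 24 h at 37 °C in humidified 5% CO2, then exposed to test agents for 72 h. MTT (5 mg/mL stock) added for a further 4 h, formazan dissolved in DMSO with 10 min shaking at room temperature, optical density read, IC50 calculated.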

A549 = assay: Antiproliferative activity against human A549 cells after 72 hrs by MTT assay; type: functional, cell-based; summary of the method: as §1

SMILES: O=C(O)c1ccc(N(CCCl)CCCl)cc1
- IC50 (MCF7): > 50 µM
- IC50 (A549): > 50 µM

— ChEMBL document CHEMBL4265940, “Synthesis of scutellarein derivatives with antiproliferative activity and selectivity through the intrinsic pathway” (Eur J Med Chem, 2018)
